Target: 5-HT2C receptor (Homo sapiens, UniProt P28335)
Test: Inverse agonist reduction of basal 5-HT2C-mediated IP production
Format: cell-based

By UniProt entry, the sequences of proteins in these tests, tags left out. Residues count along the entry.
UniProt P28335, 33-458: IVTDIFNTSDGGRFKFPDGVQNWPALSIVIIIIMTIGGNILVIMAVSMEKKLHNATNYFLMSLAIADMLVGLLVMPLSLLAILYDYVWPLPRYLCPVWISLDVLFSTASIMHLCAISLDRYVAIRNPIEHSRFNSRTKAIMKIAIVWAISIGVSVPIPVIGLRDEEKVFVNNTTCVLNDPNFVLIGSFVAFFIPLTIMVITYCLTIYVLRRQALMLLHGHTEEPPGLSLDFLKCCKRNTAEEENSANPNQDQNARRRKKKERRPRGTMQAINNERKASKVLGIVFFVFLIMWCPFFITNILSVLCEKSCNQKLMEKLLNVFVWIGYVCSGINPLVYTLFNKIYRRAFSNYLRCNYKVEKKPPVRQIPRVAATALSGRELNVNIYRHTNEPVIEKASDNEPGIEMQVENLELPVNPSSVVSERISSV

Row | SMILES | pIC50, inositol phosphate reduction (CHO-K1 cells, basal 5-HT2C-mediated IP production after 20 h of vehicle, n = 3) | IC50 [µM]
1 | Cn1ccc2cc3c(cc21)CCN3C(=O)Nc1cccnc1 [SB 206553] | 7.77 ± 0.02 | 
2 | CN1C[C@@H](NS(=O)(=O)N(C)C)C[C@@H]2c3cccc4c3c(cn4C)C[C@H]21 [mesulergine] |  | 0.024

From article PMC6767919 (European journal of pharmacology, 2019)
